Assays:
[1] = PDMS sheets cleaned by Soxhlet with ethyl acetate; batch shaking method with a mixture of all chemicals at several PDMS-mass to water-volume ratios and spiked levels; vials shaken on an orbital shaker at room temperature in the dark, sampled at two equilibration times; PDMS extracts and water quantified by LC-HRMS (Orbitrap); D from the slope of C_PDMS on C_w or their ratio; value is the mean over that pH's experiments (individual experiments in the SI's concentrations table), sd is the table's stdev; details: PDMS (polydimethylsiloxane silicone sheet), phosphate buffer at three target pH values (the paper's methods)
[2] = neutral chemical: log K is the mean of log D over all measurements at the three pH values (D shown independent of pH, paired t-test); sd is the table's stddev. PDMS sheets cleaned by Soxhlet with ethyl acetate; batch shaking method with a mixture of all chemicals at several PDMS-mass to water-volume ratios and spiked levels; vials shaken on an orbital shaker at room temperature in the dark, sampled at two equilibration times; PDMS extracts and water quantified by LC-HRMS (Orbitrap); D from the slope of C_PDMS on C_w or their ratio; details: PDMS (polydimethylsiloxane silicone sheet); phosphate buffer at three target pH values (the paper's methods)
[3] = monoprotic acid or base: log K of the neutral species extrapolated from the linear regression of D on the neutral fraction (from pKa and pH; the paper's eq. for monoprotic IOCs), the slope giving K of the neutral species; replicates column holds the table's 95% confidence limits. PDMS sheets cleaned by Soxhlet with ethyl acetate; batch shaking method with a mixture of all chemicals at several PDMS-mass to water-volume ratios and spiked levels; vials shaken on an orbital shaker at room temperature in the dark, sampled at two equilibration times; PDMS extracts and water quantified by LC-HRMS (Orbitrap); D from the slope of C_PDMS on C_w or their ratio; details: PDMS (polydimethylsiloxane silicone sheet); phosphate buffer at three target pH values (the paper's methods)

In the case of `NC(=O)N1c2ccccc2CC(O)c2ccccc21` (stereo not drawn), the “log D PDMS/w (apparent distribution ratio at the stated pH)” value ([1]; pH 3) is reported as 0.005556 log units; D and K as the pape, the “log D PDMS/w (apparent distribution ratio at the stated pH)” value ([1]; pH 7.4) is reported as -0.2088 log units; D and K as the pape and the “log D PDMS/w (apparent distribution ratio at the stated pH)” value ([1]; pH 11.5) is reported as -0.07875 log units; D and K as the pape. The “log K PDMS/w (neutral species)” value [2] was -0.09 log units; D and K as the pape.

For `CCOc1nc2cccc(C(=O)O)c2n1Cc1ccc(-c2ccccc2-c2nnn[nH]2)cc1`, the “log D PDMS/w (apparent distribution ratio at the stated pH)” value ([1]; pH 3) was 1.102 log units; D and K as the pape.

In the case of `COc1cc(NS(=O)(=O)c2ccc(N)cc2)nc(OC)n1`, the “log K PDMS/w (neutral species)” value [3] is reported as 0.1028 log units; D and K as the pape.

In the case of `COc1cc(Cc2cnc(N)nc2N)cc(OC)c1OC`, the “log K PDMS/w (neutral species)” value [3] is reported as 0.7731 log units; D and K as the pape.

With `NC(=O)N1c2ccccc2C=Cc2ccccc21` the “log D PDMS/w (apparent distribution ratio at the stated pH)” value ([1]; pH 3) was 1.225 log units; D and K as the pape, the “log D PDMS/w (apparent distribution ratio at the stated pH)” value ([1]; pH 7.4) was 1.222 log units; D and K as the pape and the “log D PDMS/w (apparent distribution ratio at the stated pH)” value ([1]; pH 11.5) was 1.269 log units; D and K as the pape. The “log K PDMS/w (neutral species)” value [2] was 1.238 log units; D and K as the pape.

For `CC1CCc2cc(F)cc3c(=O)c(C(=O)O)cn1c23` (stereo not drawn), the “log D PDMS/w (apparent distribution ratio at the stated pH)” value ([1]; pH 3) was 1.122 log units; D and K as the pape, the “log D PDMS/w (apparent distribution ratio at the stated pH)” value ([1]; pH 7.4) was 0.6177 log units; D and K as the pape and the “log K PDMS/w (neutral species)” value [3] was 1.168 log units; D and K as the pape.

With `CC(=O)CCCCn1c(=O)c2c(ncn2C)n(C)c1=O` the “log D PDMS/w (apparent distribution ratio at the stated pH)” value ([1]; pH 3) was 1.071 log units; D and K as the pape, the “log D PDMS/w (apparent distribution ratio at the stated pH)” value ([1]; pH 7.4) was 1.119 log units; D and K as the pape and the “log D PDMS/w (apparent distribution ratio at the stated pH)” value ([1]; pH 11.5) was 1.161 log units; D and K as the pape. The “log K PDMS/w (neutral species)” value [2] was 1.117 log units; D and K as the pape.

With `CCCc1nc2c(C)cc(-c3nc4ccccc4n3C)cc2n1Cc1ccc(-c2ccccc2C(=O)O)cc1` the “log D PDMS/w (apparent distribution ratio at the stated pH)” value ([1]; pH 3) was 1.742 log units; D and K as the pape, the “log D PDMS/w (apparent distribution ratio at the stated pH)” value ([1]; pH 7.4) was 1.734 log units; D and K as the pape and the “log D PDMS/w (apparent distribution ratio at the stated pH)” value ([1]; pH 11.5) was -0.3475 log units; D and K as the pape.
